Test results published in IntAct's records for PubMed 31189953.

B1: Serine/threonine-protein kinase Nek7 (Homo sapiens), Q8TDX7-1 (parent)
chain: MDEQSQGMQGPPVPQFQPQKALRPDMGYNTLANFRIEKKIGRGQFSEVYRAACLLDGVPVALKKVQIFDLMDAKARADCIKEIDLLKQLNHPNVIKYYASFIEDNELNIVLELADAGDLSRMIKHFKKQKRLIPERTVWKYFVQLCSALEHMHSRRVMHRDIKPANVFITATGVVKLGDLGLGRFFSSKTTAAHSLVGTPYYMSPERIHENGYNFKSDIWSLGCLLYEMAALQSPFYGDKMNLYSLCKKIEQCDYPPLPSDHYSEELRQLVNMCINPDPEKRPDVTYVYDVAKRMHACTASS

Variants of: B1
Conditions: with q96p20-1 NLRP3, Q96P20-1

Variant	effect of a mutation on the interaction
Q129R	decreasing interaction
R136E	decreasing interaction
R131E	decreasing interaction
K128E	with no effect
R121E	decreasing interaction

Second part, the variant after the results:

effect of a mutation on the interaction	Variant
decreasing interaction	R294E
decreasing interaction	S260A;D261R;E265R
with no effect	E280R
with no effect	E280V
decreasing interaction	D290R
decreasing interaction	S260A;D261R
